Values of other authors, collected in patent publication US20180071303A1, “SYK INHIBITORS” (Gilead Sciences, Inc., priority 2016, published 2018).

Biological target: SYK (Homo sapiens, UniProt P43405)
Conditions: SYK versus Jak2, cKit, Flt3, Ret and KDR; FIG. 5 adapted from Currie et al.; cited from earlier work

For `c1cn2cc(-c3ccc4cn[nH]c4c3)nc(Nc3ccc(N4CCOCC4)cc3)c2n1` [entospletinib], the “activity against SYK compared to other protein kinases (selectivity)” value is given as “at least ten fold more active”.
